{"source": "paper PMC7218169", "about": "(Frontiers in Immunology, 2020)", "origin": "cited, not measured here", "system": "HIV-1", "conditions": "ACTG 5315, 3 RMD doses (5 mg/m^2 BSA) every two weeks, chronically suppressed individuals; cited from earlier work", "data": [{"smiles": "C/C=C1\\NC(=O)[C@H]2CSSCC/C=C/[C@H](CC(=O)N[C@H](C(C)C)C(=O)N2)OC(=O)[C@H](C(C)C)NC1=O", "note": "[RMD, Romidepsin]", "values": [{"measurement": "Changes in viral transcription", "value": "did not show changes in viral transcription"}]}]}
